Source: patent US20170349641A1

Legend:
[1] = biological target: Aβ42 E22e peptide (2) (Homo sapiens); assay: Thioflavin T fluorescence, 20 µM peptide, 37° C.; self-aggregation
[2] = biological target: Aβ42 wild-type peptide (1) (Homo sapiens); assay: as above

| t1/2 of fibril formation (self-association) [1] [min] | t1/2 of fibril formation (self-association) [2] [min] | Substance |
| --- | --- | --- |
| 65.6 | – | Aβ42 E22e peptide (2) (peptide; D-glutamate at position 22 (replaces L-glutamate 22); D-glutamate at position 22 (replaces L-glutamate 22); other documents disagree on this pair) |
| – | 13.4 | Aβ42 wild-type peptide (1) (peptide; other documents disagree on this pair) |
